## Binding of CDR-mutated scFvs to a peptide of the spike HR2 region

Target peptide (SARS-CoV-2 spike, HR2 region): PDVDLGDISGINAS

Each scFv is VH, a 15-residue (Gly4Ser)3 linker, VL, as in the parent Ab-14, and differs from it in the CDRs of the light chain only.
VH: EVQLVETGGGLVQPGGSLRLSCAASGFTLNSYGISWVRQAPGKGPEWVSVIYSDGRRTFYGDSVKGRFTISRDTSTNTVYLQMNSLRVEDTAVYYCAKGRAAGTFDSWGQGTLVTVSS
VL: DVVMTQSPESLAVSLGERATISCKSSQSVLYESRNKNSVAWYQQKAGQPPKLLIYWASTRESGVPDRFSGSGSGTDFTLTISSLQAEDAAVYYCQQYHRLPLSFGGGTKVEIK

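These sequences belong to a second round, designed from the earlier measurements on random variants of the parent. Several design methods are mixed in this list. The assay is AlphaSeq: two haploid yeast populations carry antibody and antigen on their surface. The frequency of each diploid, read from paired DNA barcodes, reflects how well the two displayed proteins bind. Read counts were normalised to the haploid input and turned into Kd by a linear fit to BCL2-family pairs of known affinity, for each replicate. There are six technical replicates.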

The parent's light chain CDRs are KSSQSVLYESRNKNSVA, WASTRES, QQYHRLPLS; each variant's own CDRs replace them letter for letter.
This list holds designs with more than six substitutions.
The Kd shown is the geometric mean over detected replicates; a lower Kd is a better binder.
Where no diploid with the target was found in any replicate, the entry reads "nd": below detection, most likely a poor binder, though not proof of it.
The parent sequence was in this pool as ten entries: three were never detected, three once, and four in most replicates, with averages from 2.2 nM to 240 nM.
The range of this assay differs from that of the first round, and the authors advise against merging the two.
Nonspecific signal, from three strains lacking the peptide, appeared in 4% of pairings of all light chain designs, centred on 430 nM (5% of these signals below 38 nM); values are not corrected for it.
The authors' rule: three or more of the six replicates give a measured affinity, fewer mean a poor binder.

Variant MLSEVLHMLGAKKNSIA | DLVLRAN | QQYHRLPLM showed 77 nM (4 of 6 replicates).
Variant KLWMSVNGESRNKNAVA | SASQREQ | QQYHRLPLS showed 510 pM (6 of 6 replicates).
Variant MISDTGLHDSRMQNSVA | NNSTREP | QQYHRLPLS showed 55 nM (6 of 6 replicates).
Variant SIQFFTENDAEWGDSIA | DVSATTA | QQYHRLPLA showed 41 nM (5 of 6 replicates).
Variant KLMWSVMLQSRNKNSVA | QASTRME | QQYHRLPLS showed 150 nM (5 of 6 replicates).
Variant MISSVMGINNMYNSSVA | QAEERVE | QQYDRLPLS showed 170 nM (6 of 6 replicates).
Variant MLSDTVMQGSYYRNSVA | QESTRAE | QQYHHLPLS showed 6.3 nM (6 of 6 replicates).
Variant MISDMGLHDSRIQNSVA | NNSTREA | QQYDRLPLA showed 320 nM (2 of 6 replicates).
Variant KLSQSDEYESRQFNSVA | NASTRMM | QQYHRLPLS showed 1.9 nM (6 of 6 replicates).
Variant KFGQSVLTGSYVRNSVA | QQSTREN | QQYDRLPLS showed 21 nM (6 of 6 replicates).
Variant HISVSVGMTSFNKNSVA | ENSTREN | QQYDRLPLS showed 14 nM (6 of 6 replicates).
Variant MFSQAVMYGSFYRNSVA | QTSTRES | QQYDRLPLS showed 3.8 nM (6 of 6 replicates).
Variant IVSQLMMWGMHAKNSIA | EAVTRIN | QQYDRLPLF showed 330 nM (2 of 6 replicates).
Variant KISQSVPYEDRNFNSVA | HASYRCS | QQYHRLPLS showed 15 nM (6 of 6 replicates).
Variant MVSMMPNEGTRYWEAVA | DHSQRNN | QQYDQLPLS showed nd (0 of 6 replicates).
Variant KISQMVRVGATHNNSIA | EEQTRAK | QQYHRLPLA showed 9.1 nM (6 of 6 replicates).
Variant KISMLQRYQSNAKNNIA | EMSRREE | QQYHRLPLS showed 2.8 nM (6 of 6 replicates).
Variant QLGDNQVGETLMQDAIA | HDAFRAD | QQYFRLPLL showed 5.1 nM (6 of 6 replicates).
Variant KLQQLMLYESRMKNNVA | NASTRWS | QQYHRLPLS showed 4.4 nM (6 of 6 replicates).
Variant QLDLRMNEQGMQPAAIA | GATNRFT | QQYQKLPLS showed 1.2 nM (6 of 6 replicates).
Variant KLMEQFGHSMDHKNNIA | HVDMLAQ | QQYMHLPLI showed 23 nM (6 of 6 replicates).
Variant TISQLTSMFSQNINNVA | EVSTREK | QQYDRLPLA showed 1.9 nM (6 of 6 replicates).
Variant KLLESIHVESKQKNNVA | DNSTRES | QDYHRLPLS showed 630 nM (5 of 6 replicates).
Variant TLVGNIQGGGIMIKSIA | DNVQRAN | QQYYRLPLS showed 6.0 nM (6 of 6 replicates).
Variant KISQMVRVGSTVSNSIA | EEVTRAK | QQYHRLPLQ showed 4.1 nM (6 of 6 replicates).
Variant KFSQQVLYEDRQKNSVA | NASQRFS | QQYHRLPLS showed 1.4 nM (6 of 6 replicates).
Variant HITYGMMLYGRHSKSIA | QAEERAK | QQYDRLPLV showed 140 nM (4 of 6 replicates).
Variant TLGMQPTEMRDNKHAVA | DDNQRDR | QSYMRLPLS showed 22 nM (6 of 6 replicates).
Variant IVSQLMLWGYHAKNSIA | EAETRIN | QQYDRLPLF showed nd (0 of 6 replicates).
Variant TISMSMNWLTFNKDNIA | EESTREN | QQYDRLPLS showed 590 nM (4 of 6 replicates).
Variant IISGSMLMESRNKNSVA | NAETRPY | QHYDRLPLS showed 89 nM (6 of 6 replicates).
Variant TISQLYNMGTFAINSVA | QASIRNS | QQYDRLPLI showed 2.5 nM (6 of 6 replicates).
Variant KVSQAVNYLSRVMNSVA | DNSTRGS | QQYFRLPLS showed 2.5 nM (6 of 6 replicates).
Variant TISQMSTLFSQSIQNVA | EVSTRLN | QQYDRLPLM showed 6.3 nM (6 of 6 replicates).
Variant IISQVDAYESRAKNSIA | DQSTRGS | QQYDRLPLS showed 35 nM (6 of 6 replicates).
Variant KLSQSNLYEDRNANNVA | NASQRES | QVYHRLPLS showed 1.7 nM (6 of 6 replicates).
Variant KHSISVMREDRNKNSVA | DASQRES | QQYHRLPLS showed 1.6 nM (6 of 6 replicates).
Variant ALTAQNLQNMDNLNSIA | EQNQTQE | QQYFRLPFA showed 7.4 nM (6 of 6 replicates).
Variant MLSQMTGLGQKVRNSVA | QASMRFN | QQYFRLPLI showed 500 nM (3 of 6 replicates).
Variant SLMQVGGYESNNHSSIA | DLRTRES | QQYHRLPLS showed 26 nM (6 of 6 replicates).
Variant KVSQCNLGESRMKNSVA | HASQRES | QQYHRLPLS showed 1.2 nM (6 of 6 replicates).
Variant MISQLMNMGQFAINSVA | QASIRNE | QQYDRLPLM showed 14 nM (6 of 6 replicates).
Variant KFQWSNPYESRNKNSVA | NASTRMS | QQYWRLPLS showed 1.1 nM (6 of 6 replicates).
Variant ILSQSMLYESRMKNSVA | NASQRWM | QQYHRLPLS showed 1.3 nM (6 of 6 replicates).
Variant KYSGSVLYEDRMVNSVA | NASQREE | QQYHRLPLS showed 2.8 nM (6 of 6 replicates).
Variant FMEMDFQGNSGNHNSIA | SEEVKTR | QHYARLPLS showed nd (0 of 6 replicates).
Variant HISPGFMVESRLKNSVA | QTSTRES | QQYDRLPLS showed 11 nM (6 of 6 replicates).
Variant QLSMITGHYQMIKNNVA | EMETREN | QQYDRLPLA showed 28 nM (6 of 6 replicates).

The last 3 entries again:

CDR-L1,CDR-L2,CDR-L3,Kd,replicates with signal
FMEMDFQGNSGNHNSIA,SEEVKTR,QHYARLPLS,nd,0 of 6
HISPGFMVESRLKNSVA,QTSTRES,QQYDRLPLS,11 nM,6 of 6
QLSMITGHYQMIKNNVA,EMETREN,QQYDRLPLA,28 nM,6 of 6

Data: MIT Lincoln Laboratory AlphaSeq set, Li et al. 2023, doi:10.1038/s41467-023-39022-2, as distributed in FLAb.